Assay results: IntAct's records for PubMed 16525503

B1: Ataxin-3 (Homo sapiens), P54252-1 (parent)
chain: MESIFHEKQEGSLCAQHCLNNLLQGEYFSPVELSSIAHQLDEEERMRMAEGGVTSEDYRTFLQQPSGNMDDSGFFSIQVISNALKVWGLELILFNSPEYQRLRIDPINERSFICNYKEHWFTVRKLGKQWFNLNSLLTGPELISDTYLALFLAQLQQEGYSIFVVKGDLPDCEADQLLQMIRVQQMHRPKLIGEELAQLKEQRVHKTDLERVLEANDGSGMLDEDEEDLQRALALSRQEIDMEDEEADLRRAIQLSMQGSSRNISQDMTQTSGTNLTSEELRKRREAYFEKQQQKQQQQQQQQQQGDLSGQSSHPCERPATSSGALGSDLGKACSPFIMFATFTLYLTYELHVIFALHYSSFPL

Variants of: B1
Conditions: with tera_human VCP

| Variant | effect of a mutation on the interaction |
| --- | --- |
| R282H;K283N;R284H;R285H | disrupting interaction |
